Experimental data as given in patent US20070032448A1, “Sugar modified nucleosides as viral replication inhibitors” (priority 2002, published 2007).

Assay: Pharmacokinetics, intravenous and oral dosing
Conditions: in vivo; oral vs intravenous dosing

bioavailability: 27.1%
Structure (SMILES): NC(=O)c1ncn([C@@H]2O[C@H](CO)[C@@H](O)[C@H]2O)n1 [Ribavirin, reference compound]
